## Yeast mating assay 2: variants of the scFv Ab-91

Target peptide (SARS-CoV-2 spike, HR2 region): PDVDLGDISGINAS

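Phage display of a naive human antibody library on the peptide gave the parent. Library AAYL51 holds single substitutions and randomly drawn double and triple substitutions in the CDRs. In AlphaSeq, yeast of one mating type display the scFv and yeast of the other type display the target. After mating in shaken culture at 30 °C for 16 h, diploids were selected and their barcode pairs sequenced. The ratio of observed to expected reads was calibrated, replicate by replicate, on BCL2-family standards whose Kd was known from biolayer interferometry. Each pool was mated in three replicate cultures.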

Parent: Ab-91, a human scFv built as VL, a (GGGGS)3 linker, VH. Only the CDRs of the heavy chain vary.
VL: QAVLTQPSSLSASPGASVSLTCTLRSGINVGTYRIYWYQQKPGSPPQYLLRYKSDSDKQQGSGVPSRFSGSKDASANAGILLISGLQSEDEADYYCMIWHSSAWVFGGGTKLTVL
VH: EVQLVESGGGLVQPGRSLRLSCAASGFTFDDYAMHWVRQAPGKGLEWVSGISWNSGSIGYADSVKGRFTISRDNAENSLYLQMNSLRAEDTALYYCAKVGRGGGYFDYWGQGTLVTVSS

Positions count from residue 1 of the parent VH; A33L puts L in place of A.
Every variant below is changed at V99 of the VH (sequential numbering).
Values are apparent Kd, the geometric mean of the replicates that gave a signal; lower means stronger binding.
A pair that was not seen in any replicate is written "nd"; this usually means weak binding, but a binder can also be missed.
Order: sorted from the lowest average up, undetected variants last.

Variant A33L/V99N showed 8.4 nM (3 of 3 replicates; controls 0 of 9). Variant V64C/K65I/V99N gave 33 nM (3 of 3 replicates; controls 1 of 9). Variant G56C/V99D/Y108K gave 460 nM (3 of 3 replicates; controls 1 of 9). With S63F/V99F/G104F the result was 4.0 µM (1 of 3 replicates; controls 3 of 9). With W53R/V99L the result was 18 µM (3 of 3 replicates; controls 6 of 9). Variant S52I/V64I/V99R showed 18 µM (1 of 3 replicates; controls 4 of 9). Variant F29A/I51A/V99Y gave 26 µM (1 of 3 replicates; controls 0 of 9). Variant G26E/Y32P/V99E gave 33 µM (1 of 3 replicates; controls 2 of 9).

For K65Y/V99Q/Y105G, the assay gave 46 µM (2 of 3 replicates; controls 3 of 9). For K65E/V99A/F106G, the assay gave 55 µM (2 of 3 replicates; controls 1 of 9). Variant A33C/G59T/V99R gave 71 µM (3 of 3 replicates; controls 4 of 9). With V99H/G104K/Y108V the result was 88 µM (2 of 3 replicates; controls 5 of 9). For G56Q/V99F/G102H, the assay gave 96 µM (2 of 3 replicates; controls 4 of 9). For W53G/V99L, the assay gave 140 µM (2 of 3 replicates; controls 8 of 9). Variant S57M/K65S/V99L showed 150 µM (3 of 3 replicates; controls 7 of 9). With G26N/V99G the result was 210 µM (2 of 3 replicates; controls 4 of 9).

For I51C/V99N, the assay gave 330 µM (1 of 3 replicates; controls 1 of 9). Variant V99W/R101P/G104P showed 1.1 mM (1 of 3 replicates; controls 6 of 9). Variant V64H/V99I/F106Y gave nd (0 of 3 replicates; controls 1 of 9). For V99P/F106L/D107R, the assay gave nd (0 of 3 replicates; controls 1 of 9). With Y32F/M34E/V99W the result was nd (0 of 3 replicates; controls 0 of 9). With F27S/V99D/G104H the result was nd (0 of 3 replicates; controls 1 of 9). With T28S/V99K/R101Q the result was nd (0 of 3 replicates; controls 0 of 9). With T28L/S57E/V99F the result was nd (0 of 3 replicates; controls 0 of 9).

Variant I58P/V99I/G104F showed nd (0 of 3 replicates; controls 0 of 9). With T28A/V99R the result was nd (0 of 3 replicates; controls 2 of 9). Variant G56E/Y60R/V99S showed nd (0 of 3 replicates; controls 0 of 9). Variant S57R/Y60V/V99H showed nd (0 of 3 replicates; controls 0 of 9). With A61F/K65W/V99F the result was nd (0 of 3 replicates; controls 0 of 9). For M34D/V99M/G104N, the assay gave nd (0 of 3 replicates; controls 1 of 9). Variant G26R/A61R/V99L showed nd (0 of 3 replicates; controls 1 of 9). Variant V64W/K65N/V99H gave nd (0 of 3 replicates; controls 0 of 9).

Variant A33P/S52H/V99E showed nd (0 of 3 replicates; controls 1 of 9). With F27Y/D31M/V99L the result was nd (0 of 3 replicates; controls 2 of 9). For S63A/V99A/R101H, the assay gave nd (0 of 3 replicates; controls 0 of 9).

The closing 4 entries, repeated:

For V64W/K65N/V99H, the assay gave nd (0 of 3 replicates; controls 0 of 9).
For A33P/S52H/V99E, the assay gave nd (0 of 3 replicates; controls 1 of 9).
For F27Y/D31M/V99L, the assay gave nd (0 of 3 replicates; controls 2 of 9).
For S63A/V99A/R101H, the assay gave nd (0 of 3 replicates; controls 0 of 9).

Parent in this assay: reference entry 72 nM, copy in this library 7.5 nM.
As a blank, each scFv also met three strains without target: over library AAYL51, 21% of these pairings were detected, typically at 34 µM and seldom below 1.8 µM. The control count says in how many pairings with the empty strains this scFv gave a signal.

Data: MIT Lincoln Laboratory AlphaSeq set, Engelhart et al. 2022, doi:10.1038/s41597-022-01779-4, as distributed in FLAb.